Legend:
[1] = system: established adjuvant arthritis (AA); assay: Comparative efficacy of SA and MTX in the treatment of established arthritis (Example 4); format: in vivo, male Lewis rats
Experimental: Three groups of 15 male Lewis rats were injected with M.Tb on day 0 in the left hindpaw. […] On day 16, subcutaneous pumps were placed in the SA and control groups. SA was administered at 300 mg/kg/day by CI. The control group received 2.5M NaCl. […] Treatment was continued to day 30.

[2] = system: adjuvant arthritis (AA); assay: Comparative efficacy of MTX and SA in suppressing onset of AA (Example 3); design: species or system Lewis rats; conditions: rat, in vivo
[3] = system: adjuvant arthritis (AA); assay: Combined SA and MTX treatment of AA (Example 5); format: in vivo, male Lewis rats; conditions: 4.8 mg/kg/week IP; FIG. 11
Excerpt: AA was induced in male Lewis rats as in the previous examples. On day 5, subcutaneous pumps were placed in all the rats.

[4] = system: adjuvant arthritis (AA); assay: Long term suppression of AA using combined SA and MTX treatment (Example 6); format: in vivo, male Lewis rats; conditions: SA 300 mg/kg/day IP or MTX 0.9 mg/kg/week IP, day 5 to 15
Experimental: On day 0, three groups of 10 male Lewis rats were injected with M.Tb in oil suspension, as in previous examples. […] The animals were evaluated for arthritis development.

CN(Cc1cnc2nc(N)nc(N)c2n1)c1ccc(C(=O)N[C@@H](CCC(=O)O)C(=O)O)cc1 [MTX, Methotrexate]
right footpad diameter, progression from day 23 to 63 ([1]; SA 300 mg/kg/day CI or MTX 2.4 mg/kg/week IP, day 16 to 30, FIG. 10): further progression of the right footpad swelling
mean right hindpaw thickness ([1]; day 23, SA 300 mg/kg/day CI or MTX 2.4 mg/kg/week IP from day 16, control 321, normal about 170 U): 324 U
footpad swelling suppression [2]: significant suppression
suppression of AA (right footpad swelling), MTX alone [3]: Maximal efficacy
suppression of AA, single drugs IP [4]: AA was not suppressed

From patent US5149688A, “Methods, compounds, and compositions for immunosuppression” (priority 1990, dated 1992)
